## Yeast mating assay B: variants of the scFv Ab-14

Antigen: PDVDLGDISGINAS, a 14-residue peptide of the SARS-CoV-2 spike HR2 region.

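The variants were designed computationally from a first round of random CDR variants and then made and measured. Several design methods are mixed in this list. The scFvs were displayed on barcoded MATa yeast, the peptide on MATalpha yeast. Mating (16 h, 30 °C) was followed by selection of diploids and sequencing of their barcodes. Scores were corrected for input abundance and mapped to Kd with protein pairs of known affinity run in the same pool. Each pool was mated in six replicate cultures.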

Parent: Ab-14, a human scFv built as VH, three GGGGS repeats, VL. Only the CDRs of the heavy chain vary.
VH: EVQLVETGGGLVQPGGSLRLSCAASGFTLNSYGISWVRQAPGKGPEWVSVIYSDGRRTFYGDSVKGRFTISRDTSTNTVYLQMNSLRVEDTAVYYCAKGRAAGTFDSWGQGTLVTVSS
VL: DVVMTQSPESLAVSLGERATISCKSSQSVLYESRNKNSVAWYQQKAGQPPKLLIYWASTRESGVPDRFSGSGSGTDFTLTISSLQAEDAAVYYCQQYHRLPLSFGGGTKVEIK

Each variant is given by its three heavy chain CDRs, as the data file delimits them; those of the parent are GFTLNSYGIS, VIYSDGRRTFYGDSVK, GRAAGTFDS. This list holds designs with more than six substitutions. Each Kd is an estimate from the mating assay, the geometric mean of the replicates in which the pair was seen; lower is stronger. "nd" marks a missing value. The strain was present, yet no cells mated with the target were sequenced in any replicate, which points to weak or no binding.

CDR-H1,CDR-H2,CDR-H3,Kd,detected,control signals
GFSLDEYGIS,VIYADGQRTFYADSVK,GNSAGTFDS,660 pM,6/6,2/18
GFGLSEYGIS,VIYADGMRTSYDDNIK,GALAGTFDE,82 nM,6/6,0/18
GFDLNEYGIS,VIYADGMRTAYSDNVK,GNQAGTFDV,210 pM,6/6,0/18
GFNLEEYGIS,VIYADGKRSSVSDSVK,GQLGNAFDM,nd,0/6,0/18
GFDLEKYGIH,VIYADGMRASYSDAVK,GDLSGTLYI,nd,0/6,0/18
GFDLDEYGIS,VIYADGRRTVYADSVK,GNVAGTFDV,240 pM,6/6,0/18
GFSIDEYGIS,VIYADGLRQHYTNAVK,GEAAGTLDM,17 nM,5/6,0/18
GFDLDEYGIS,VIYADGKRTYYADSVK,GNVAGTFDL,1.1 nM,6/6,0/18
GFQLDEYGIS,VIYADGERTMYSNDVK,GTEGGTFQQ,nd,0/6,0/18
GFDLNEYGIS,VIYADGVRTAYADDVK,GNQAGTFDV,340 pM,6/6,0/18
GFDLEEYGIS,VIYADGRRTAYADSVK,GNVAGTFDL,560 pM,6/6,0/18
GFDLNEYGIS,VIYADGRRTAYADSVK,GHVAGTFVS,460 pM,6/6,0/18
GFDLDEYGIS,VIYADGMRTAYSDSVK,GNVAGTFDV,230 pM,6/6,0/18
GFDLNEYGIS,VIYADGVRTSYADSVK,GEAAGTFDV,58 nM,5/6,0/18
GFDLNEYGIS,VIYADGLRTFYTDSVK,GEVAGTFDS,660 pM,6/6,0/18
GFDLNEYGIS,VIYADGKRTFYADSVK,GNEAGTFDM,300 pM,6/6,1/18
GFDLESYGIS,VIYADGSRTAYADSVK,GNTAGTFNV,7.5 nM,6/6,0/18
GFDLNEYGIS,VIYADGVRTAYADSVK,GHNAGTFDV,220 pM,6/6,0/18
GFDLNEYGIS,VIYADGVRTAYADKVK,GQVAGTFDV,340 pM,6/6,0/18
GFDLNEYGIS,VIYADGRRTFYQDSVK,GEIAGTFDI,800 pM,6/6,0/18
GFDLDEYGIS,VIYADGQRTAYADKVK,GENAGTFDV,510 pM,6/6,0/18
GFDLEDYGIS,VIYADGKRTAYTDSVK,GNVAGTFDV,5.2 nM,6/6,0/18
GFDLDEYGIS,VIYADGMRTFYADSVK,GNVAGTFDT,570 pM,6/6,0/18
GFDLNSYGQS,VSYCDGRRTFTGDSVK,GRAAGWFNS,nd,0/6,0/18
GFDLNEYGIS,VIYADGSRTAYSDSVK,GEVAGTFDL,490 pM,6/6,0/18
GFNLDEYGIS,VIYADGRRTFYQDSVK,GEGAGTFDT,83 nM,4/6,1/18
GFDLNEYGIS,VIYADGRRTFYKDSVK,GGNGGTFDV,1.4 nM,6/6,0/18
GFDLDEYGIS,VIYADGRRTYYADSVK,GENAGTFDM,220 pM,6/6,0/18
GFDLNEYGIS,VIYADGLRTSYDDSVK,GNLAGTFDQ,130 nM,3/6,1/18
GFDLDEYGIS,VIYADGQRTAYADSVK,GSNAGTFDI,1.6 nM,6/6,1/18
GFTLDEYGIS,VIYADGRRTFYTDSVK,GGNAGTFDV,300 pM,6/6,0/18
GADLNEYGIS,VIYADGQRTVYADTVK,GHHGGIFDS,nd,0/6,0/18
GFDLNEYGIS,VIYADGRRTAYSDSVK,GTNAGTFDM,290 pM,6/6,0/18
GFDLNEYGIS,VIYADGRRTAYVDQVK,GTNAGTFDQ,110 pM,6/6,0/18
GFSLDEYGIS,VIYADGIRQHYSDKVK,GVVFGNVMF,nd,0/6,0/18
GKTLDEYGIS,VIYADGMRTFYLNTVK,GEDGGFLNQ,nd,0/6,0/18
GFQLEDYGIS,VIYADGRRTAYAADVK,GQNNVVSGG,nd,0/6,1/18
GFDLDEYGIS,VIYADGMRTAYSDSVK,GNQAGTFDQ,500 pM,6/6,0/18
GFDLNEYGIS,VIYADGRRTAYTDSVK,GENAGTFDM,390 pM,6/6,0/18
GPSIDEYGIS,VIYADGIRESYNDNVK,GNTGGAFDV,nd,0/6,0/18
GFKLDEYGIS,VIYADGCRTAYVDSVK,GDTTFSKFV,nd,0/6,1/18
GFDLNEYGIS,VIYADGIRTAYSDSVK,GNVAGTFDV,410 pM,6/6,0/18
GFDLNEYGIS,VIYADGVRTFYKDSVK,GEAAGTFDQ,580 pM,6/6,0/18
GMDLEEYGIS,VIYADGMRTYAVDSVK,GDQGGTLGY,320 nM,1/6,0/18
GFDLNEYGIS,VIYADGRRTFYADSVK,GNTAGTFDQ,450 pM,6/6,0/18

Of ten entries with the parent sequence, four were seen in most replicates (averages 2.2 nM to 240 nM), three in one and three in none, so single entries are noisy. The authors averaged sequences with at least three values out of six and counted those with two or fewer as poor binders. The range of this assay differs from that of the first round, and the authors advise against merging the two. Three control strains display no target. For all heavy chain designs, 1% of the pairings with them gave a signal, with a median of 120 nM and one signal in twenty below 7.0 nM, so weak values seen in few replicates may be background. For each scFv, signals with the empty controls are counted beside the result.

Reference: Li et al. 2023, doi:10.1038/s41467-023-39022-2. File: FLAb, binding data.